Values of other authors in patent US9796990B2 (priority 2011, dated 2017).

What was measured:
[1] = test system: Bluegill (Lepomis macrochirus); details: in vivo; cited from earlier work
[2] = test system: aquatic and terrestrial biota; details: in vivo; cited from earlier work

Oc1nc(Cl)c(Cl)cc1Cl [TCP, 3,5,6 trichloropyridin-2-ol]
toxicity compared with the parent compound chlorpyriphos [1]: considerably less toxic than the parent compound
toxicity to aquatic and terrestrial biota [2]: low to moderate toxicity
